## Melting point values, as collected for the OPERA models

Data: OPERA 2.9 data sets, kmansouri/OPERA on GitHub.

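The OPERA project collected these measurements from public sources as training and test data for property models. The files give a single number for a compound and property, which may rest on several reports. How each value was measured is not recorded, so precision varies. The measured form (salt, isomer or mixture) is not always the one drawn. Unmarked limits or estimates from the upstream databases cannot be ruled out.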

Melting points are in °C. Cells with "n/a" have no entry in this list. "via" names the databases from which the curators took the value.

compound	name	melting point (°C)	via
O=C(CCl)c1ccc(Br)cc1	1-(4-Bromophenyl)-2-chloroethan-1-one	120	OCHEM
Clc1ccc(-c2c(Cl)cc(Cl)c(Cl)c2Cl)c(Cl)c1Cl	2,2',3,3',4,4',6-Heptachlorobiphenyl	122	QSARDB
O=CNC(N1CCN(C(NC=O)C(Cl)(Cl)Cl)CC1)C(Cl)(Cl)Cl (stereo unspecified)	N,N'-Bis(1-formamido-2,2,2-trichloroethyl)piperazine	155	PubChem
CNC(=O)c1cc(Cl)cc(C)c1NC(=O)c1cc(Br)nn1-c1ncccc1Cl	Chlorantraniliprole	209	OCHEM, PubChem
COc1ccc(F)c(CBr)c1F	2,6-Difluoro-3-methoxybenzyl bromide	54.5	OCHEM
CCc1cc(C)cc(CC)c1-c1c(OC(=O)C(C)(C)C)n2n(c1=O)CCOCC2	Pinoxaden	121	PubChem
CC(C)[C@@]1(NC(=O)[C@@H]2C=C3c4cccc5[nH]cc(c45)C[C@H]3N(C)C2)O[C@@]2(O)[C@@H]3CCCN3C(=O)[C@H](Cc3ccccc3)N2C1=O	Ergocristine	175	PubChem
C1CCC(NC2CCCCC2)CC1.CC(C)(F)C[C@H](N[C@@H](c1ccc(-c2ccc(S(C)(=O)=O)cc2)cc1)C(F)(F)F)C(=O)O	n/a	208	eChemPortal
CC(C)(c1ccc(OP(=O)(Oc2ccccc2)Oc2ccccc2)cc1)c1ccc(OP(=O)(Oc2ccccc2)Oc2ccccc2)cc1	2,2-Bis[4-[bis(phenoxy)phosphoryloxy]phenyl]propane	13.5	eChemPortal
N#Cc1ccsc1NC(=O)CCl	2-chloro-N-(3-cyanothiophen-2-yl)acetamide	165	OCHEM
CC(Cl)c1cccc([N+](=O)[O-])c1 (stereo unspecified)	1-(1-Chloroethyl)-3-nitrobenzene	34	OCHEM
CC(C)(C)n1cc(C(=O)O)cn1	1-tert-Butyl-1H-pyrazole-4-carboxylic acid	156	OCHEM
CNC(=S)[S-].[Na+]	Metam-sodium	88.5	OCHEM
O=c1cc(CCl)nc2sccn12	7-(chloromethyl)-5H-[1,3]thiazolo[3,2-a]pyrimidin-5-one	181	OCHEM
CCCCCC(CCC)COC(=O)c1ccccc1C(=O)OCC(CCC)CCCCC (stereo unspecified)	Bis(2-propylheptyl) phthalate	-48	eChemPortal
c1ccc(C(c2ccccc2)C2CCCCN2)cc1 (stereo unspecified)	2-(Diphenylmethyl)piperidine	66	PubChem
CN1CCN(c2ccc(C#N)cn2)CC1	3-Pyridinecarbonitrile, 6-(4-methyl-1-piperazinyl)-	68	OCHEM
CC(C)C(C)(N)C#N (stereo unspecified)	2-Amino-2,3-dimethylbutanenitrile	-11	eChemPortal
Nc1ccccc1C(=O)OCCc1ccccc1	Phenethyl anthranilate	42	PubChem
Cc1nc2ccccc2c(=O)n1-c1ccc(C(=O)O)cc1	4-(2-methyl-4-oxoquinazolin-3(4H)-yl)benzoic acid	221	OCHEM
Clc1cccc(-c2cccc(Cl)c2Cl)c1Cl	n/a	121	QSARDB
Br.COc1ccc2c(c1)C13CCCCC1C(C2)N(C)CC3.O (stereo unspecified)	Dextromethorphan hydrobromide monohydrate	170	OCHEM
CCC(N)P(=O)(O)O (stereo unspecified)	(1-Aminopropyl)phosphonic acid	252	OCHEM
c1ccc2[nH]c(C3CCNCC3)nc2c1	2-(Piperidin-4-yl)-1H-benzimidazole	254	OCHEM
Brc1ccc(Oc2ccc(Br)cc2Br)c(Br)c1	2,2',4,4'-Tetrabromodiphenyl ether	83.05	OCHEM
COC1=CC2=CC[C@H]3[C@@H]4[C@@H](OC(C)=O)CC(=O)[C@@]4(C)CC[C@@H]3[C@@]2(C)CC1	n/a	217	eChemPortal
Clc1cccc(Cl)c1-c1c(Cl)cccc1Cl	n/a	198	QSARDB
O=P(Oc1ccccc1)(Oc1ccccc1)Oc1cccc(OP(=O)(Oc2ccccc2)Oc2ccccc2)c1	Tetraphenyl m-phenylene bis(phosphate)	-13	eChemPortal
NN=C(N)N.O=P(O)(O)O	Carbazamidine phosphate	125.8	eChemPortal
COS(=O)(=O)[O-].Cn1c(-c2ccccc2)cc(-c2ccccc2)[n+]1C	Difenzoquat metilsulfate	157	OCHEM
O=C(CCl)c1ccc[nH]1	2-Chloro-1-(1H-pyrrol-2-yl)ethan-1-one	115	OCHEM
ClC(Cl)=Nc1ccccc1	Phenylcarbylamine chloride	19.5	PubChem
Clc1cnc(N2CCNCC2)c(Cl)c1	1-(3,5-Dichloro-2-pyridyl)piperazine	60	OCHEM
C[C@@H](Oc1ccc(Oc2ccc(C#N)cc2F)cc1)C(=O)O	Cyhalofop	50	OCHEM
CNC1=C(c2cccc(C(F)(F)F)c2)C(=O)C(c2ccccc2)O1 (stereo unspecified)	Flurtamone	152	OCHEM
CC(Cl)C(=O)NCC(F)(F)F (stereo unspecified)	2-chloro-N-(2,2,2-trifluoroethyl)propanamide	43	OCHEM
NC(N)=[Se]	Selenourea	200	PubChem
Cc1cc(C(=O)CCl)c(C)s1	2-Chloro-1-(2,5-dimethylthiophen-3-yl)ethan-1-one	55	OCHEM
C=C1C/C(=C/C)C(=O)O[C@@H]2CCN3CC=C(COC(=O)[C@@]1(O)CO)[C@H]23	Riddelliine	187.2	PubChem
Cc1nn(Cc2ccccc2)c(C)c1C=O	1-Benzyl-3,5-dimethyl-1H-pyrazole-4-carbaldehyde	73	OCHEM

Extract of 3 entries:

compound	name	melting point (°C)	via
Clc1cnc(N2CCNCC2)c(Cl)c1	1-(3,5-Dichloro-2-pyridyl)piperazine	60	OCHEM
CCc1cc(C)cc(CC)c1-c1c(OC(=O)C(C)(C)C)n2n(c1=O)CCOCC2	Pinoxaden	121	PubChem
NC(N)=[Se]	Selenourea	200	PubChem